{"source": "patent US5017602A", "about": "“Antagonists of organophosphate-induced toxicity” (dated 1991)", "key": {"[1]": {"system": "mice", "experiment": "LD50 (IM) in mice"}, "[2]": {"system": "neuromuscular transmission", "experiment": "Inhibition of rabbit neuromuscular transmission", "settings": "for ID50 (95% C.L.), inhibition of rabbit neuromuscular transmission: IV, anesthetized rabbit, sciatic nerve stimulation, 95% C.L. in parentheses; for \"cholinergic\" responses: probably by inhibition of acetylcholinesterase; for Antagonism of the neuromuscular block by choline: choline chloride 5 mg/kg IV; for Inhibition of neuromuscular transmission (in words): rabbit"}, "[3]": {"system": "Paraoxon-induced toxicity", "experiment": "Protection against Paraoxon-induced toxicity/lethality in mice", "settings": "for survival, Paraoxon-induced lethality: best survival reached; for Therapeutic Index: LD50/PD50; for therapeutic index / therapeutic ratio (in words): compared with physostigmine and pyridostigmine"}, "[4]": {"system": "neuromuscular transmission", "settings": "prior knowledge; cited from earlier work"}, "[5]": {"system": "sodium-dependent high affinity choline uptake mechanism", "settings": "prior knowledge; cited from earlier work"}, "[6]": {"system": "choline transport", "experiment": "Inhibition of choline transport (suggested by studies in rabbits)"}}, "data": [{"smiles": "CC1C[N+](C)(CC(=O)c2ccc(-c3ccc(C(=O)C[N+]4(C)CCOC(C)C4)cc3)cc2)CCO1", "note": "(centres unmarked)", "values": [{"measurement": "LD50", "setting": "[1]; IM", "value": 13.0, "unit": "µmol/kg"}, {"measurement": "ID50 (95% C.L.), inhibition of rabbit neuromuscular transmission", "setting": "[2]", "value": "> 0.16", "unit": "µmol/kg"}, {"measurement": "\"cholinergic\" responses", "setting": "[2]", "value": "produced \"cholinergic\" responses"}, {"measurement": "antagonism of Paraoxon-induced toxicity (in words)", "setting": "[3]; mice", "value": "only moderately effective"}, {"measurement": "survival, Paraoxon-induced lethality", "setting": "[3]; mice", "value": "at least 50%"}]}, {"smiles": "CNC(=O)Oc1ccc2c(c1)[C@]1(C)CCN(C)[C@@H]1N2C", "values": [{"measurement": "LD50", "setting": "[1]; Table 3", "value": 1.2, "unit": "µmol/kg"}, {"measurement": "Therapeutic Index", "setting": "[3]; mice", "value": 60}]}, {"smiles": "C[N+]1(CC(=O)c2ccc(-c3ccc(C(=O)C[N+]4(C)CCCCC4)cc3)cc2)CCCCC1", "values": [{"measurement": "LD50", "setting": "[1]; IM", "value": 1.6, "unit": "µmol/kg"}, {"measurement": "\"cholinergic\" responses", "setting": "[2]", "value": "produced \"cholinergic\" responses"}, {"measurement": "antagonism of Paraoxon-induced toxicity (in words)", "setting": "[3]; mice", "value": "only moderately effective"}, {"measurement": "survival, Paraoxon-induced lethality", "setting": "[3]; mice", "value": "at least 50%"}]}, {"smiles": "CN(C)C(=O)Oc1ccc[n+](C)c1", "values": [{"measurement": "LD50", "setting": "[1]; Table 3", "value": 10.3, "unit": "µmol/kg"}, {"measurement": "Therapeutic Index", "setting": "[3]; mice", "value": 8}]}, {"smiles": "C[N+]1(C)CCOC(O)(c2ccc(-c3ccc(C4(O)C[N+](C)(C)CCO4)cc3)cc2)C1", "note": "(centres unmarked)", "values": [{"measurement": "blockade of neuromuscular transmission (background)", "setting": "[4]", "value": "blockade of neuromuscular transmission"}, {"measurement": "inhibition of sodium-dependent high affinity choline uptake (background)", "setting": "[5]", "value": "inhibition of the sodium-dependent high affinity choline uptake mechanism"}]}, {"smiles": "C[N+]1(CC(=O)c2ccc(-c3ccc(C(=O)C[N+]4(C)CCCC4)cc3)cc2)CCCC1", "values": [{"measurement": "LD50", "setting": "[1]; IM", "value": 0.74, "unit": "µmol/kg"}, {"measurement": "Antagonism of the neuromuscular block by choline", "setting": "[2]", "value": "choline is an effective antagonist"}, {"measurement": "\"cholinergic\" responses", "setting": "[2]", "value": "produced \"cholinergic\" responses"}, {"measurement": "Inhibition of neuromuscular transmission (in words)", "setting": "[2]", "value": "potent inhibitors of neuromuscular transmission"}]}, {"smiles": "Cl.Cl.O=C(CN1CCOCC1)c1ccc(-c2ccc(C(=O)CN3CCOCC3)cc2)cc1", "values": [{"measurement": "LD50", "setting": "[1]; IM", "value": "> 2079", "unit": "µmol/kg"}, {"measurement": "ID50 (95% C.L.), inhibition of rabbit neuromuscular transmission", "setting": "[2]", "value": "> 2.08", "unit": "µmol/kg"}]}, {"smiles": "C[N+]1(CC(=O)c2ccc(-c3ccc(C(=O)C[N+]4(C)CCOCC4)cc3)cc2)CCOCC1", "values": [{"measurement": "LD50", "setting": "[1]; IM", "value": 3.8, "unit": "µmol/kg"}, {"measurement": "\"cholinergic\" responses", "setting": "[2]", "value": "produced \"cholinergic\" responses"}]}, {"smiles": "Br.Br.O=C(CN1CCCCC1)c1ccc(-c2ccc(C(=O)CN3CCCCC3)cc2)cc1", "values": [{"measurement": "LD50", "setting": "[1]; IM", "value": 397.5, "unit": "µmol/kg"}, {"measurement": "ID50 (95% C.L.), inhibition of rabbit neuromuscular transmission", "setting": "[2]", "value": "> 1.8", "unit": "µmol/kg"}]}, {"smiles": "O=C(CN1CCCC1)c1ccc(-c2ccc(C(=O)CN3CCCC3)cc2)cc1", "values": [{"measurement": "LD50", "setting": "[1]; IM", "value": 743.5, "unit": "µmol/kg"}, {"measurement": "ID50 (95% C.L.), inhibition of rabbit neuromuscular transmission", "setting": "[2]", "value": "> 5.6", "unit": "µmol/kg"}]}, {"smiles": "CC1CC[N+](C)(CC(=O)c2ccc(-c3ccc(C(=O)C[N+]4(C)CCC(C)C4)cc3)cc2)C1", "note": "(centres unmarked)", "values": [{"measurement": "LD50", "setting": "[1]; IM", "value": 0.84, "unit": "µmol/kg"}]}, {"smiles": "C[N+](C)(CC(=O)c1ccc(-c2ccc(C(=O)C[N+](C)(C)CC3OCCCO3)cc2)cc1)CC1OCCCO1", "values": [{"measurement": "LD50", "setting": "[1]; IM", "value": 7.3, "unit": "µmol/kg"}, {"measurement": "LD50", "setting": "[1]; Table 3", "value": 7.3, "unit": "µmol/kg"}, {"measurement": "\"cholinergic\" responses", "setting": "[2]", "value": "produced \"cholinergic\" responses"}, {"measurement": "prophylactic effect", "setting": "[3]; administered prior to exposure", "value": "prophylactic effect"}, {"measurement": "therapeutic index / therapeutic ratio (in words)", "setting": "[3]", "value": "far superior to the commercially known antagonists"}, {"measurement": "therapeutic index / therapeutic ratio (in words)", "setting": "[3]; listed as 4,4'-bis-[(1,3-dioxan-2-ylmethyl)amino-acetyl]biphenylDimethbromide", "value": "very high therapeutic ratio"}, {"measurement": "ED50, antagonism of Paraoxon-induced toxicity", "setting": "[3]; mice, 1440 min", "value": 0.013, "unit": "mg/kg"}, {"measurement": "Therapeutic Index", "setting": "[3]; mice", "value": 360}, {"measurement": "survival, Paraoxon-induced lethality", "setting": "[3]; mice", "value": "at least 50%"}, {"measurement": "inhibition of choline transport (in words)", "setting": "[6]", "value": "weak inhibitor of choline transport"}]}, {"smiles": "CC1CCC[N+]1(C)CC(=O)c1ccc(-c2ccc(C(=O)C[N+]3(C)CCCC3C)cc2)cc1", "note": "(centres unmarked)", "values": [{"measurement": "LD50", "setting": "[1]; IM", "value": 0.67, "unit": "µmol/kg"}, {"measurement": "Antagonism of the neuromuscular block by choline", "setting": "[2]", "value": "choline is an effective antagonist"}, {"measurement": "Inhibition of neuromuscular transmission (in words)", "setting": "[2]", "value": "potent inhibitors of neuromuscular transmission"}]}]}
